Experimental data published in patent publication US7030139B2, “Compounds” (AstraZeneca AB, priority 2001, dated 2006).

Protein sequences, listed by entry. Tags and fused reporters are not part of them.
UniProt P34972, whole entry, looked up: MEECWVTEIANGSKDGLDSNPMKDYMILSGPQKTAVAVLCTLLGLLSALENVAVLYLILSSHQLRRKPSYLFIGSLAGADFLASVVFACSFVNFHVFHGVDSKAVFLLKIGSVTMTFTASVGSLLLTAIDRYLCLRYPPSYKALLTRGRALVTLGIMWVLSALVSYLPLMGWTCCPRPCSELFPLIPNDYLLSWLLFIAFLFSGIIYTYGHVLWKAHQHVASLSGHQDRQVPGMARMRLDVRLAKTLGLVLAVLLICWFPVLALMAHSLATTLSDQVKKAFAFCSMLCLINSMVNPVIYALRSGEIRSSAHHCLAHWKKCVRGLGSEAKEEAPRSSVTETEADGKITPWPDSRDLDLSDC

Assays:
hCB2 [1] = target: T1, hCB2 (Homo sapiens, UniProt P34972); assay: hCB2 receptor binding (3H-CP55,940 displacement, membranes); conditions: read-out: hCB2 IC50, Table 2, human CB2 membranes
hCB2 [2] = target: T1, hCB2; assay: hCB2 GTPγS binding; assay type: biochemical; conditions: for EC50: read-out: hCB2 EC50, Table 2, human CB2 membranes

Compound	IC50 (hCB2 [1]) [nM]	EC50 (hCB2 [2]) [nM]	Emax (%) (hCB2 [2]; Table 2, maximal stimulated binding defined with 1 μM Win 55,212-2)
CCOc1ccc(C(C)c2nc3cc(N(C)C(=O)CC(C)C)ccc3n2CC2CC2)cc1 (centres unmarked) [Example 52, N-[1-(Cyclopropylmethyl)-2-[1-(4-ethoxyphenyl)ethyl]-1H-benzimidazol-5-yl]-N,3-dimethyl-butanamide]	22	7.8	–
2-[(4-Ethoxyphenyl)methyl]-N,N-diethyl-1-[[(2R)-1-methyl-2-piperidinyl methyl]-1H-benzimidazole-5-carboxamide	18	1.7	106
